The list is not random: actives were taken first. Their share in the collection is about 2.2%.
ERp5 block: inhibitors of ERp5-driven insulin aggregation, primary screen, biochemical, turbidity, absorbance 650 nm, single point. 350,000 tested, 0.05% active. AID 651711, 2012. 90 min. Protein disulfide-isomerase A6 (Homo sapiens), Q15084. inhibition, % at 9.99 µM;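 active = mean replicate inhibition above about 25%, with every replicate also reaching it, limit read from the data, passing the limit was not always enough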
PDI turbidity: inhibitors of human PDI, primary screen, biochemical, turbidity, single point, plate reader; inhibition, % at 10 µM; Protein disulfide-isomerase (Homo sapiens), P07237; 350,000 tested, 0.052% active; AID 588391, 2011; PDI insulin aggregation turbidity, A650, 90 min;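 active = mean inhibition across replicates of 30% or more, whatever share of single replicates reach that level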
FGF22 binding: binders of human FGF22 protein, primary screen, FGF22 synaptogenesis inhibitor project, biophysical, thermal shift, single point. 340,000 tested, 1.5% active. recombinant FGF22 thermal shift, SYPRO orange fluorescence; percent of sucrose octasulfate shift, DMSO zero. Fibroblast growth factor 22 (Homo sapiens), Q9HCT0. activity (Tm shift, normalised), % at 9.99 µM;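 active = mean Tm shift, scaled 0 neutral to 100 positive control, at about 1.3% or above, every replicate too, limit read from the data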
UUG fidelity: modulators of yeast start codon fidelity, primary screen, whole organism, S. cerevisiae, single point, plate reader. S. cerevisiae UUG-firefly luciferase reporter, luminescence/redox ratio. activity score, % at 18.7 µM. hit rate 0.13% among 350,000;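 active = replicate mean at a twofold rise or more, about +100% in these data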;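 also: firefly luciferase made from a UUG start codon reports start codon fidelity; reporter light over untreated wells divided by growth signal over untreated wells; some hits fall short of that in this replicate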
S100A4 inh HTS: inhibitors of S100A4-myosin IIA peptide binding, primary screen, biochemical, fluorescence polarization, TAMRA-MyoIIA peptide; 360,000 tested, 0.14% active; inhibition, % at 10.7 µM; Protein S100-A4 (Homo sapiens), P26447;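 active = mean inhibition of at least 70% across replicates, with every replicate also reaching that level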
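Material: S100A4 monomer (human). Medium: Calcium-containing HEPES buffer, pH 7.2. Probe or stimulus: labelled myosin peptide probe, 5 nM. Compound dosing: one concentration per compound. Timing: polarization read 5 min after assay mix addition, stable 5–60 min. Benchmarks: DMSO as neutral control, TFP as positive control.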
SIRT5 inh: SIRT5 desuccinylase inhibitors, primary screen, biochemical, fluorescence imaging, single point, set 5; NAD-dependent protein deacylase sirtuin-5, mitochondrial (Homo sapiens), Q9NXA8; Purified SirT5, succinyl-peptide AMC, trypsin-coupled fluorescence; inhibition, % at 15 µM; 330,000 tested, 1.1% active; in the data active = inhibition above about 15%
* marks the source's active call; other numbers are inactive results; · = no result.

Short forms: A = ERp5 block; B = PDI turbidity; C = FGF22 binding; D = UUG fidelity; E = S100A4 inh HTS; F = SIRT5 inh
C[C@H]1CN([C@@H](C)CO)C(=O)c2cc(NC(=O)C3CC3)ccc2O[C@H]1CN(C)Cc1ccc2c(c1)OCO2
  A = -2 | B = · | C = 0 | D = -2 | E = 0 | F = 3
C[C@@H]1CN([C@@H](C)CO)C(=O)c2cc(NC(=O)Nc3ccc4c(c3)OCO4)ccc2O[C@@H]1CN(C)Cc1ccc(C(=O)O)cc1
  A = 39* | B = · | C = 0 | D = 10 | E = 10 | F = 3
C[C@@H]1CN([C@H](C)CO)C(=O)c2cccc(NC(=O)Nc3ccc(C(F)(F)F)cc3)c2O[C@@H]1CN(C)Cc1ccc(-c2ccccc2)cc1
  A = -5 | B = · | C = -1 | D = -8 | E = 1 | F = 103*
C[C@@H]1CN([C@H](C)CO)C(=O)c2cc(NC(=O)C3CC3)ccc2O[C@@H]1CN(C)Cc1ccc2c(c1)OCO2
  A = -2 | B = · | C = 0 | D = -2 | E = 14 | F = 17*
COCC(=O)Nc1ccc2c(c1)C(=O)N(C)[C@@H]1CC[C@H](CC(=O)NCC(F)(F)F)O[C@@H]1CO2
  A = 11 | B = · | C = 0 | D = -1 | E = 1 | F = -2
CNc1ccccc1C(C)(C)c1cc(-c2cccc(Br)c2)no1
  A = -2 | B = 7 | C = 43* | D = -24 | E = -53 | F = -2
CNc1ccccc1C(C)(C)c1cc(-c2cccc([N+](=O)[O-])c2)no1
  A = 1 | B = 12 | C = 0 | D = 14 | E = 1 | F = -6
CCC(=O)N/C(N)=N/c1nc(C)c2cc(C)c(C)cc2n1
  A = -3 | B = 2 | C = 0 | D = -14 | E = 24 | F = 18*
Cc1cc2nc(/N=C(\N)NC(=O)C(C)C)nc(C)c2cc1C
  A = · | B = 2 | C = 0 | D = -20 | E = -2 | F = -5
CCOc1cc(NC(=S)NCCc2ccccc2)c(OCC)cc1NC(C)=O
  A = 1 | B = -8 | C = 43* | D = · | E = 4 | F = -2
CCOc1cc(NC(=S)NCc2ccccc2)c(OCC)cc1NC(=O)C(C)C
  A = -1 | B = -3 | C = 0 | D = -23 | E = 5 | F = -3
O=C(CNc1ccc2ccccc2c1)N/N=C/c1ccc(OC(=O)/C=C/c2ccco2)cc1
  A = 2 | B = 4 | C = 44* | D = · | E = -6 | F = -1
O=C(CNc1cccc2ccccc12)N/N=C/c1ccc(OC(=O)/C=C/c2ccco2)cc1
  A = -3 | B = 27 | C = 0 | D = -38 | E = -2 | F = -3
Cc1ccc(C(=O)N/N=C/c2cccc(OC(=O)/C=C/c3ccco3)c2)cn1
  A = -2 | B = 7 | C = 0 | D = · | E = -5 | F = 24*
C[C@@H]1CCCCO[C@H](CN(C)C(=O)c2ccccc2)[C@@H](C)CN([C@H](C)CO)C(=O)c2cc(NS(=O)(=O)c3ccc(Cl)cc3)ccc2O1
  A = 0 | B = · | C = -1 | D = 5 | E = 54 | F = 14
O=C(C[C@@H]1CC[C@@H]2[C@H](COC[C@H](O)CN2C(=O)c2ccc(F)cc2)O1)Nc1ccc(-c2ccccc2)cc1
  A = 0 | B = · | C = 0 | D = · | E = 6 | F = 6
CN(Cc1ccc2nonc2c1)Cc1nc(CC2CC2)no1
  A = 4 | B = 2 | C = 43* | D = · | E = -3 | F = 0
Cc1cc(N)n(-c2ccc(Oc3ccccc3)c(S(=O)(=O)O)c2)n1
  A = -2 | B = -12 | C = 0 | D = · | E = 0 | F = 47*
CNC(=O)C[C@H]1CC[C@H]2[C@@H](COC[C@H](O)CN2C(=O)Nc2ccc3c(c2)OCO3)O1
  A = · | B = · | C = 0 | D = · | E = · | F = ·
O=S(=O)(c1ccc(F)cc1)N1CCN(C(=S)NCCc2ccccc2)CC1
  A = 2 | B = 9 | C = 0 | D = -13 | E = -1 | F = -2
O=C(CSc1ccc(F)cc1)N1CCN(S(=O)(=O)c2ccccc2)CC1
  A = 1 | B = 3 | C = 44* | D = 2 | E = -3 | F = 2
O=S(=O)(c1ccc(F)cc1)N1CCN(C(=S)NCc2ccccc2)CC1
  A = -2 | B = 3 | C = 44* | D = · | E = 1 | F = 0
CC(C)(CO)NC(=S)NCc1ccco1
  A = 0 | B = 1 | C = 0 | D = -15 | E = -4 | F = 30*
CCCCCC(=O)Nc1nc(C)c(-c2csc(Nc3cc(Cl)ccc3OC)n2)s1
  A = -6 | B = 12 | C = 0 | D = -21 | E = -6 | F = 24*
CCCC(=O)Nc1nc(C)c(-c2csc(Nc3cc(OC)ccc3OC)n2)s1
  A = -8 | B = -3 | C = 0 | D = -15 | E = -4 | F = ·

Among those listed so far, these have an aryl methoxy group:
Short forms: A = ERp5 block; B = PDI turbidity; C = FGF22 binding; D = UUG fidelity; E = S100A4 inh HTS; F = SIRT5 inh
CCCCCC(=O)Nc1nc(C)c(-c2csc(Nc3cc(Cl)ccc3OC)n2)s1
  A = -6 | B = 12 | C = 0 | D = -21 | E = -6 | F = 24*
CCCC(=O)Nc1nc(C)c(-c2csc(Nc3cc(OC)ccc3OC)n2)s1
  A = -8 | B = -3 | C = 0 | D = -15 | E = -4 | F = ·

Next section.
Short forms: A = ERp5 block; B = PDI turbidity; C = FGF22 binding; D = UUG fidelity; E = S100A4 inh HTS; F = SIRT5 inh
CSCc1cc(C(=O)NC2CC2)c(N)s1
  A = -1 | B = · | C = 0 | D = · | E = 74* | F = -2
Cc1cc(C(=O)NC2CCC(C)CC2)c(C)o1 (stereo unspecified)
  A = -5 | B = -8 | C = 0 | D = -14 | E = 0 | F = 0
O=C(C[C@H]1CC[C@@H]2[C@H](COC[C@H](O)CN2C(=O)Nc2ccc3c(c2)OCO3)O1)N1CCN(c2ccccc2)CC1
  A = 0 | B = · | C = 0 | D = · | E = 123* | F = 9
CCCNC(=O)N1C[C@H](O)COC[C@H]2O[C@H](CC(=O)N3CCC(Cc4ccccc4)CC3)CC[C@@H]21
  A = -1 | B = · | C = 0 | D = · | E = 0 | F = 11
O=C(C[C@H]1CC[C@H]2[C@@H](COC[C@@H](O)CN2Cc2ccc(Oc3ccccc3)cc2)O1)N1CCc2ccccc2C1
  A = 1 | B = · | C = 0 | D = · | E = 2 | F = 1
CCCNC(=O)N1C[C@@H](O)COC[C@@H]2O[C@H](CC(=O)N3CCC(Cc4ccccc4)CC3)CC[C@H]21
  A = 0 | B = · | C = 0 | D = · | E = -2 | F = 23*
O=C(C[C@@H]1CC[C@@H]2[C@H](COC[C@H](O)CN2C(=O)Nc2ccc3c(c2)OCO3)O1)N1CCN(c2ccccc2)CC1
  A = -3 | B = · | C = 0 | D = · | E = 6 | F = 4
O=C(C[C@H]1CC[C@@H]2[C@H](COC[C@H](O)CN2Cc2ccc(Oc3ccccc3)cc2)O1)N1CCc2ccccc2C1
  A = -2 | B = · | C = 0 | D = · | E = -5 | F = 18*
O=C(C[C@@H]1CC[C@H]2[C@@H](COC[C@H](O)CN2CCC(F)(F)F)O1)N1CCC(Cc2ccccc2)CC1
  A = 3 | B = · | C = 0 | D = 3 | E = -19 | F = 17*
CNC(=O)C[C@H]1CC[C@@H]2[C@H](COc3ccc(NC(=O)Nc4ccc(C)cc4)cc3C(=O)N2C)O1
  A = -4 | B = · | C = 0 | D = -12 | E = 1 | F = 0
O=C(NC1CCC1)[C@@H]1[C@@H](CO)[C@@H]2Cn3c(ccc(-c4cncnc4)c3=O)[C@@H]2N1C(=O)NC1CCCC1
  A = 7 | B = · | C = 0 | D = · | E = -1 | F = -25
C[C@@H]1CN([C@@H](C)CO)C(=O)c2cc(-c3ccccc3F)cnc2O[C@H]1CN(C)Cc1cccc(C(=O)O)c1
  A = -1 | B = · | C = 1 | D = 28 | E = 7 | F = 2
CO[C@@H]1CN(C)C(=O)c2cc(NC(=O)c3cc(C)on3)ccc2OC[C@H](C)N(C(=O)C2CC2)C[C@H]1C
  A = -3 | B = · | C = 0 | D = -2 | E = 0 | F = -2
CCOC(=O)c1ccc(S(=O)(=O)N2CCN(C(=O)c3nn(C)c(=O)c4ccccc34)CC2)cc1
  A = -2 | B = 4 | C = 43* | D = · | E = -3 | F = -9

Screens as filed in PubChem.
